Source: patent EP0660840B1 (priority 1992, dated 1994)

By UniProt entry, the sequences of proteins in these tests, tags left out. Where a name states a change or a piece, a line headed by the entry shows the natural chain unless it says otherwise.
UniProt P07861: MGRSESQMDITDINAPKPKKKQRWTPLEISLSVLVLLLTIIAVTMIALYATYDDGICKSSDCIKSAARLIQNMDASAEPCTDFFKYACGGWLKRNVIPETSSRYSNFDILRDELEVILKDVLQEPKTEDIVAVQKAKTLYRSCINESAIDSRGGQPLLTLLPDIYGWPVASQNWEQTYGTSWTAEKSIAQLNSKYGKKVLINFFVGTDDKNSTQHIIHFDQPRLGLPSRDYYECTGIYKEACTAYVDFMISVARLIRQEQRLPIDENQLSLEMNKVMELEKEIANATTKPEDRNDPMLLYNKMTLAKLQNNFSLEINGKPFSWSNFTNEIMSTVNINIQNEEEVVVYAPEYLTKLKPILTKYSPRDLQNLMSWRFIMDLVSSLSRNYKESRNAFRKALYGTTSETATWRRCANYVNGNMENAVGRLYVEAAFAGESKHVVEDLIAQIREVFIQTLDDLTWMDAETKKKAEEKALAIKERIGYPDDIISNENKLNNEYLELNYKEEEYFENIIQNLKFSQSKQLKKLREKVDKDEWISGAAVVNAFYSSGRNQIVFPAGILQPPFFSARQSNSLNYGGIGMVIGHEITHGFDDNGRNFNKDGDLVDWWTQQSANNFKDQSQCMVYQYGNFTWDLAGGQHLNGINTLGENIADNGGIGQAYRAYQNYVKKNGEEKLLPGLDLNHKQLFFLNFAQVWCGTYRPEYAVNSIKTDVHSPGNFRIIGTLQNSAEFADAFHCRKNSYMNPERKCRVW

Molecular target: neutral endopeptidase (NEP) 3.4.24.11 (Rattus norvegicus, UniProt P07861)
Assay: biochemical

O=C(O)[C@H](Cc1ccc(-c2ccccc2)cc1)NCP(=O)(O)O [Example 11, (S)-3-(biphenyl-4-yl)-2-(phosphonomethylamino)-propionic acid]
IC50: ~15 nM
